Columns and labels:
Assay in all cases: SPR
[1] = molecular target: biotin-Avi-His6-SUMO full-length human cGAS (human) (UniProt Q8N884)
[2] = molecular target: human cGAS full-length (Homo sapiens) (UniProt Q8N884)
[3] = tested on: human cGAS catalytic domain (Homo sapiens)

Amino acid sequences for entries named in this document (tags omitted).
UniProt Q8N884, whole entry: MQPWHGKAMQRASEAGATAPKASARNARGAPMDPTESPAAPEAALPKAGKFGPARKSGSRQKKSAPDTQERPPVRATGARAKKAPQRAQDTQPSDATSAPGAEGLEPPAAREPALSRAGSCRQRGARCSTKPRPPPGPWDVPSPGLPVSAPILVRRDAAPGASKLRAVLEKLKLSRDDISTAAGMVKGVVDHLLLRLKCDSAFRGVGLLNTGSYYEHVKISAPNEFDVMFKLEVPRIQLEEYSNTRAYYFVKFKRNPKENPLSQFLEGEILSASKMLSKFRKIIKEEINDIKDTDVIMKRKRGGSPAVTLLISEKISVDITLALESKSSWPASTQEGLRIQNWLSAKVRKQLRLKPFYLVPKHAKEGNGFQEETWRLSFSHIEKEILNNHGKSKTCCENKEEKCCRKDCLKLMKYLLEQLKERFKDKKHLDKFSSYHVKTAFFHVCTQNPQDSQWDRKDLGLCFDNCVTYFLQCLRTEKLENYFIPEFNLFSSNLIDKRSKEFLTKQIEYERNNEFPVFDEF

Kd [1] | Substance | Kd [2] | Kd [3]
8.6 nM | in vitro reconstituted human nucleosome (H2A, H2B, H3-C110A, H4, Widom 601 DNA) (from UniProt P04908;P06899;P62805) (complex) | – | –
– | mononucleosomes purified from HEK 293T | 6.3 nM | –
6.3 nM | nucleosomes purified from HEK 293T cells (from UniProt P04908;P06899;P68431;P62805) (complex) | – | –
– | reconstituted human nucleosome, Widom 601 | 8.6 nM | 2.9 nM

Source: publication PMC7704945
